Key:
[1] = RNA-seq, PANC1 stable cells; details: glycan lost; control: WT-p65 overexpressing PANC1 cells
[2] = anti-pS536 Western blot after IL-1β; details: glycan lost; control: WT-p65 overexpressing cells
[3] = qPCR of CD274 and FGF8, PANC1 and MIA PaCa2; details: glycan lost; control: WT-p65 overexpressing cells
[4] = Western blot time course, PANC1 and MIA PaCa2; details: glycan lost; control: WT-p65 overexpressing cells
[5] = anti-FLAG immunofluorescence with DAPI, IL-1β 1 h; details: glycan lost; control: WT-p65 overexpressing cells
[6] = κB (ELAM) luciferase reporter, PANC1 and MIA PaCa2; details: glycan lost; control: WT-p65 overexpressing cells

B1: p65 subunit of NF-κB (RelA/p65): S550A/S551A (protein)
parent chain: MDELFPLIFPAEPAQASGPYVEIIEQPKQRGMRFRYKCEGRSAGSIPGERSTDTTKTHPTIKINGYTGPGTVRISLVTKDPPHRPHPHELVGKDCRDGFYEAELCPDRCIHSFQNLGIQCVKKRDLEQAISQRIQTNNNPFQVPIEEQRGDYDLNAVRLCFQVTVRDPSGRPLRLPPVLSHPIFDNRAPNTAELKICRVNRNSGSCLGGDEIFLLCDKVQKEDIEVYFTGPGWEARGSFSQADVHRQVAIVFRTPPYADPSLQAPVRVSMQLRRPSDRELSEPMEFQYLPDTDDRHRIEEKRKRTYETFKSIMKKSPFSGPTDPRPPPRRIAVPSRSSASVPKPAPQPYPFTSSLSTINYDEFPTMVFPSGQISQASALAPAPPQVLPQAPAPAPAPAMVSALAQAPAPVPVLAPGPPQAVAPPAPKPTQAGEGTLSEALLQLQFDDEDLGALLGNSTDPAVFTDLASVDNSEFQQLLNQGIPVAPHTTEPMLMEYPEAITRLVTGAQRPPDPAPAPLGAPGLPNGLLSGDEDFSSIADMDFSALLSQISS
**Q.** Which “other: NF-κB target gene expression, other: % of 986 WT-p65-induced genes downregulated” value [1] does the source give for B1 here?
**A.** The value was “decreases”.

**Q.** What about the “other: p65 S536 phosphorylation” value [2] of the same protein?
**A.** The value was “decreases”.

**Q.** And the “other: NF-κB target gene expression” value [3]?
**A.** Its value is “decreases”.

**Q.** What about the “other: IL-1β-induced IκBα degradation” value [4] of the same protein?
**A.** The value was “no change”.

**Q.** What about the localisation_or_trafficking [5] of the same protein?
**A.** Its localisation_or_trafficking is “decreases”.

**Q.** What about the “other: NF-κB transcriptional activity” value [6] of the same protein?
**A.** Its value is “decreases”.

B2: p65 subunit of NF-κB (RelA/p65): S550A (protein)
parent chain: MDELFPLIFPAEPAQASGPYVEIIEQPKQRGMRFRYKCEGRSAGSIPGERSTDTTKTHPTIKINGYTGPGTVRISLVTKDPPHRPHPHELVGKDCRDGFYEAELCPDRCIHSFQNLGIQCVKKRDLEQAISQRIQTNNNPFQVPIEEQRGDYDLNAVRLCFQVTVRDPSGRPLRLPPVLSHPIFDNRAPNTAELKICRVNRNSGSCLGGDEIFLLCDKVQKEDIEVYFTGPGWEARGSFSQADVHRQVAIVFRTPPYADPSLQAPVRVSMQLRRPSDRELSEPMEFQYLPDTDDRHRIEEKRKRTYETFKSIMKKSPFSGPTDPRPPPRRIAVPSRSSASVPKPAPQPYPFTSSLSTINYDEFPTMVFPSGQISQASALAPAPPQVLPQAPAPAPAPAMVSALAQAPAPVPVLAPGPPQAVAPPAPKPTQAGEGTLSEALLQLQFDDEDLGALLGNSTDPAVFTDLASVDNSEFQQLLNQGIPVAPHTTEPMLMEYPEAITRLVTGAQRPPDPAPAPLGAPGLPNGLLSGDEDFSSIADMDFSALLSQISS
**Q.** Which “other: NF-κB target gene expression, other: % of 986 WT-p65-induced genes downregulated” value [1] does the source give for B2 here?
**A.** Its value is “decreases”.

**Q.** And the “other: p65 S536 phosphorylation” value [2]?
**A.** Its value is “decreases”.

**Q.** What about the “other: NF-κB target gene expression” value [3] of the same protein?
**A.** The value was “decreases”.

**Q.** What about the “other: IL-1β-induced IκBα degradation” value [4] of the same protein?
**A.** The value was “no change”.

**Q.** And the localisation_or_trafficking [5]?
**A.** The localisation_or_trafficking was “decreases”.

**Q.** What about the “other: NF-κB transcriptional activity” value [6] of the same protein?
**A.** Its value is “decreases”.

B3: p65 subunit of NF-κB (RelA/p65): S551A (protein)
parent chain: MDELFPLIFPAEPAQASGPYVEIIEQPKQRGMRFRYKCEGRSAGSIPGERSTDTTKTHPTIKINGYTGPGTVRISLVTKDPPHRPHPHELVGKDCRDGFYEAELCPDRCIHSFQNLGIQCVKKRDLEQAISQRIQTNNNPFQVPIEEQRGDYDLNAVRLCFQVTVRDPSGRPLRLPPVLSHPIFDNRAPNTAELKICRVNRNSGSCLGGDEIFLLCDKVQKEDIEVYFTGPGWEARGSFSQADVHRQVAIVFRTPPYADPSLQAPVRVSMQLRRPSDRELSEPMEFQYLPDTDDRHRIEEKRKRTYETFKSIMKKSPFSGPTDPRPPPRRIAVPSRSSASVPKPAPQPYPFTSSLSTINYDEFPTMVFPSGQISQASALAPAPPQVLPQAPAPAPAPAMVSALAQAPAPVPVLAPGPPQAVAPPAPKPTQAGEGTLSEALLQLQFDDEDLGALLGNSTDPAVFTDLASVDNSEFQQLLNQGIPVAPHTTEPMLMEYPEAITRLVTGAQRPPDPAPAPLGAPGLPNGLLSGDEDFSSIADMDFSALLSQISS
**Q.** For B3, which “other: NF-κB target gene expression, other: % of 986 WT-p65-induced genes downregulated” value [1] is on record?
**A.** The value was “decreases”.

**Q.** And the “other: p65 S536 phosphorylation” value [2]?
**A.** The value was “decreases”.

**Q.** And the “other: NF-κB target gene expression” value [3]?
**A.** Its value is “decreases”.

**Q.** What about the “other: IL-1β-induced IκBα degradation” value [4] of the same protein?
**A.** Its value is “no change”.

**Q.** And the localisation_or_trafficking [5]?
**A.** The localisation_or_trafficking was “decreases”.

**Q.** And the “other: NF-κB transcriptional activity” value [6]?
**A.** Its value is “decreases”.
